{
  "source": "patent US4740588A",
  "about": "“Novel substrate peptides” (Washington University, priority 1986, dated 1988)",
  "test_system": "NCCCC[C@H](NC(=O)[C@@H]1CCCN1C(=O)[C@H](CCCCN)NC(=O)[C@H](CO)NC(=O)[C@H](CCCCN)NC(=O)[C@H](CO)NC(=O)[C@H](CO)NC(=O)CN)C(N)=O",
  "experiment": "purified protein, by the assay type",
  "conditions": "other: peptide as acyl acceptor; partially purified yeast enzyme; 1 μCi [3H]-myristic acid per tube; 30.0 °C",
  "data": [
    {"substance": "Yeast Myristoylating Enzyme (Saccharomyces cerevisiae S288C)", "values": [
      {"measurement": "Km", "result": 40, "unit": "µM"}
    ]}
  ]
}
